For one test, the target named is ROCK1 (Homo sapiens (Human), UniProt Q13464). The test can be described thus: FRET-based Z'-Lyte kinase assay, ROCK1.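 Further: kinase phosphorylates a coumarin/fluorescein-labelled FRET peptide, then a protease cleaves unphosphorylated peptide, progress read as donor to acceptor emission ratio after 400 nm excitation.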 The format is biochemical.
A further test addresses ROCK2 (Homo sapiens (Human), UniProt O75116). The test can be described thus: FRET-based Z'-Lyte kinase assay, ROCK2.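 Further: kinase phosphorylates a coumarin/fluorescein FRET peptide, then a protease cleaves unphosphorylated peptide, read as donor/acceptor emission ratio after 400 nm excitation.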 The format is biochemical. To be noted: read-out: IC50 ± SD (μM) ROCK2.

The chains behind the UniProt entries cited, without tags or fusion partners.
UniProt Q13464, whole entry, species assumed: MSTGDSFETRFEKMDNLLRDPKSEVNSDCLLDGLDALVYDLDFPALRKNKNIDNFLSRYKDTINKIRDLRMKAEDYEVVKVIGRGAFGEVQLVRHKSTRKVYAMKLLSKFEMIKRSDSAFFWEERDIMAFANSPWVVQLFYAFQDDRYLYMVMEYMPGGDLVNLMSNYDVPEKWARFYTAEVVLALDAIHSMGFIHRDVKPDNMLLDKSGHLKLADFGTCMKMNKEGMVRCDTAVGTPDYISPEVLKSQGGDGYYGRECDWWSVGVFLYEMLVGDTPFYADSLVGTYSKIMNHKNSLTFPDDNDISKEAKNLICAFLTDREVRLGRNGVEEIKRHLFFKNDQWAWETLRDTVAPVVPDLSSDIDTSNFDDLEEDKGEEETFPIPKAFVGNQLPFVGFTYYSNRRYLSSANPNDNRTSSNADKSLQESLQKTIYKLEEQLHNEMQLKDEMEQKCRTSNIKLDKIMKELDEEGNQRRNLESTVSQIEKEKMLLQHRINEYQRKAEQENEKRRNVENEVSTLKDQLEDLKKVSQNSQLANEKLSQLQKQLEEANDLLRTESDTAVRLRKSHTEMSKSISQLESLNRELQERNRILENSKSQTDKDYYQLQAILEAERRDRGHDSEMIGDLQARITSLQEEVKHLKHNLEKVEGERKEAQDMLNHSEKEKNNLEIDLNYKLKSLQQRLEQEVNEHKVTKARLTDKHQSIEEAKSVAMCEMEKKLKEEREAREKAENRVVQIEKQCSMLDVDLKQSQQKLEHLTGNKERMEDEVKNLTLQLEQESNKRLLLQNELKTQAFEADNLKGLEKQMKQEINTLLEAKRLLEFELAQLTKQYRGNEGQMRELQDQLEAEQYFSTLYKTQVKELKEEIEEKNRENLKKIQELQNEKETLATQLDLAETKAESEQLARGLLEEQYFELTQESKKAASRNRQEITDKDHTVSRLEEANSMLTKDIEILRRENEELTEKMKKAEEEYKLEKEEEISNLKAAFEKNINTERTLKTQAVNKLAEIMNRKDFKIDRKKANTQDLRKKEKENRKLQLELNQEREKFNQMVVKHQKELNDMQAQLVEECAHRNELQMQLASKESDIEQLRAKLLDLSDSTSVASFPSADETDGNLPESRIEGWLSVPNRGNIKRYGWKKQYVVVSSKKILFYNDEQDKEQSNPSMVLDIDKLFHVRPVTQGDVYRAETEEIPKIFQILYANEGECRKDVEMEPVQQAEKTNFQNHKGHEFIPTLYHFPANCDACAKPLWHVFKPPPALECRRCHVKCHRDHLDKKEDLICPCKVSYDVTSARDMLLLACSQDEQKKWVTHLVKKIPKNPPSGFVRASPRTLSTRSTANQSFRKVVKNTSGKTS
UniProt O75116, whole entry, species assumed: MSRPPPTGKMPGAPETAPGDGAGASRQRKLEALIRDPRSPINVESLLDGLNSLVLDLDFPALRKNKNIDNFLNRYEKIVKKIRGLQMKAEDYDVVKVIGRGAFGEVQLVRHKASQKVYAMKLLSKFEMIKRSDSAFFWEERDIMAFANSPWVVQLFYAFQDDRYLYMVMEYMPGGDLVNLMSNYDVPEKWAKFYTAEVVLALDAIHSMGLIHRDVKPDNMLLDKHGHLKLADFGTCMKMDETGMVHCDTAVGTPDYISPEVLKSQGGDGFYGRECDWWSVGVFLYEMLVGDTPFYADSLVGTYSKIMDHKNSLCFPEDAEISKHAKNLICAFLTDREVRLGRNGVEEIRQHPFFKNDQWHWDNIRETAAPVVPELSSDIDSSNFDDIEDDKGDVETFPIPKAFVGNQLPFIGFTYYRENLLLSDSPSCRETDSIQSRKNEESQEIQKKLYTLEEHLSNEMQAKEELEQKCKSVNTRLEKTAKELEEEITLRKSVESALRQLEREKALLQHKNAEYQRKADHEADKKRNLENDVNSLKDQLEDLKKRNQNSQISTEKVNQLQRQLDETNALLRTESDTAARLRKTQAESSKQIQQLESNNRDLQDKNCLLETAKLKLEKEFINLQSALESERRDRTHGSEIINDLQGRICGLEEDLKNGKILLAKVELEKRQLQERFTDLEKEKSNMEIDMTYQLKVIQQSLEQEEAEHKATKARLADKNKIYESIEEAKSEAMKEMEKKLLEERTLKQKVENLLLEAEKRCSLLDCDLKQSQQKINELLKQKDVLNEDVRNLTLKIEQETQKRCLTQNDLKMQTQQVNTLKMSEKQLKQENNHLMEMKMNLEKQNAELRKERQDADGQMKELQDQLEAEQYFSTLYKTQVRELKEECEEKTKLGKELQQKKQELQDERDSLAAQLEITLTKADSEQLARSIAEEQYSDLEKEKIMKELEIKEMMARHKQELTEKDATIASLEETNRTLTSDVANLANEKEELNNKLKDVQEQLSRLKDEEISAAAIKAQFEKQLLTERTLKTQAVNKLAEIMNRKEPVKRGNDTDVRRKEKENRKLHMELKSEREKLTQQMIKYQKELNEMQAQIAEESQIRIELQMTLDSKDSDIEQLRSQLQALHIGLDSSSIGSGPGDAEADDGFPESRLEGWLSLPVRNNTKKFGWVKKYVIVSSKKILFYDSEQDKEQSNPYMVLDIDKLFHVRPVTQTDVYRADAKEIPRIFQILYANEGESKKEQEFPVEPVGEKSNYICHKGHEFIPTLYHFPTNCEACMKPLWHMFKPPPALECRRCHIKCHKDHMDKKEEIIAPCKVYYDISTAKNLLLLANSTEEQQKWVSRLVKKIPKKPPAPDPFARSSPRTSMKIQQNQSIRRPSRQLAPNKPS

Like-named read-outs stand apart in the source and are kept apart here.

On to `O=C(Nc1nc(-c2ccncc2)cs1)N[C@H](CO)c1ccccc1` [Compound 1at, (S)-1-(2-Hydroxy-1-phenylethyl)-3-(4-(pyridin-4-yl)thiazol-2-yl)urea], for which the IC50 amounted to 0.03 µM at ROCK1 (read-out: ROCK1 IC50) and 0.03 ± 0.01 µM on ROCK2.
For `O=C(Nc1nc(-c2ccncc2)cs1)NC(CO)c1ccccc1` (stereo not drawn) [Compound 1ar, 1-(2-Hydroxy-1-phenylethyl)-3-(4-(pyridin-4-yl)thiazol-2-yl)urea] the same measures were 0.06 µM and 0.03 ± 0.02 µM.
Turning to `O=C(Nc1nc(-c2ccncc2)cs1)N[C@@H](CO)c1ccccc1` [Compound 1as, (R)-1-(2-Hydroxy-1-phenylethyl)-3-(4-(pyridin-4-yl)thiazol-2-yl)urea], the figures for the IC50 at ROCK1 (read-out: IC50 ± SD (μM) ROCK1) and at ROCK2 were 5.2 µM and 2.5 ± 1 µM, respectively.

The values above are taken from US9221808B2, “Pyridylthiazole-based ureas as inhibitors of Rho associated protein kinase (ROCK) and methods of use” (H. Lee Moffitt Cancer Center and Research Institute, Inc., priority 2010, dated 2015).
